Results as given in US12128037B2, “Sulfasalazine salts, production processes and uses” (priority 2017, dated 2024).

Tests used:
[1] = hemi salts with metal counterions, trihydrates; cited from earlier work
Caco-2 cell monolayers = test: Transport across Caco 2 cell monolayer; format: in vitro ADME; conditions: direction ab, 180 min incubation
Experimental: Experiments were performed in triplicate.

[2] = Solubility in water or FaSSIF-V2 medium (Example 8, HPLC)

| Structure (SMILES) | solubility compared to sulfasalazine [1] | Cumulative drug transport (Caco-2 cell monolayers; 50 μg/mL) [μg/cm^2] | Cumulative drug transport (Caco-2 cell monolayers; 200 μg/mL) [μg/cm^2] | pH ([2]; FaSSIF-V2, saturated solution) | pH ([2]; Water, saturated solution) | pH ([2]; diluted in phosphate Buffer pH 6.8 (Water column)) |
| --- | --- | --- | --- | --- | --- | --- |
| O.O.O.O=C([O-])c1cc(/N=N/c2ccc(S(=O)(=O)Nc3ccccn3)cc2)ccc1O.O=C([O-])c1cc(/N=N/c2ccc(S(=O)(=O)Nc3ccccn3)cc2)ccc1O.[Ca+2] [calcium (as its trihydrate)] | less soluble than sulfasalazine |  |  |  |  |  |
| O=C(O)c1cc(/N=N/c2ccc(S(=O)(=O)Nc3ccccn3)cc2)ccc1O [sulfasalazine, 2-hydroxy-5-[2-[4-[(2-pyridinylamino)sulfonyl]phenyl]diazenyl]-benzoic acid] |  | 1.14 | 3.81 | 6.3 | 5.9 |  |
| CNCC(O)C(O)C(O)C(O)CO.O=C(O)c1cc(N=Nc2ccc(S(=O)(=O)Nc3ccccn3)cc2)ccc1O [Form A meglumine salt] |  |  |  | 6.4 | 7.5 | 6.0* |

Marks after values point to notes of the source that are not given here.
